Measured values as given in paper PMC9226319, “Peripherally restricted transthyretin-based delivery system for probes and therapeutics avoiding opioid-related side effects” (Nature Communications, 2022).

Columns and labels:
male Sprague-Dawley rats [1] = assay: Hot plate analgesia (latency) assays; conditions: antagonist SC 30 min before fentanyl 1 mg/kg SC; AG10-L2-Nal 35 µmol/kg (30 mg/kg); naloxegol dose not stated in text (30 and 100 mg/kg in Supp Fig. 10)
male Sprague-Dawley rats [2] = assay: Gastrointestinal (GI) transit (charcoal meal) assays; assay type: in vivo, rat; conditions: antagonist SC 30 min before fentanyl 1 mg/kg SC; AG10-L2-Nal 35 µmol/kg (30 mg/kg); naloxegol dose not stated in text (30 and 100 mg/kg in Supp Fig. 10)

SMILES	reversal of fentanyl-induced analgesia (male Sprague-Dawley rats [1])	reversal of fentanyl-induced OIC (male Sprague-Dawley rats [2])
C=CCN1CC[C@]23c4c5ccc(O)c4O[C@H]2[C@@H](OCc2cn(CCNCCCCCCOc4cc(OCCCc6c(C)n[nH]c6C)cc(C(=O)O)c4)nn2)CC[C@@]3(O)[C@H]1C5 [AG10-L2-Nal]	no reversal of analgesia	minimal reversal of OIC
C=CCN1CC[C@]23c4c5ccc(O)c4O[C@H]2[C@@H](OCCOCCOCCOCCOCCOCCOCCOC)CC[C@@]3(O)[C@H]1C5 [Naloxegol, reference compound]	effective in reversing both analgesia and OIC	–
